# Results published in article PMC7030922.
# Some of the results follow.
# Molecular target: Voltage-dependent L-type calcium channel subunit beta-1 (UniProt Q8R3Z5)
# Experiment: cross-link between two proteins; cross-linking mass spectrometry
substance,measurement,value
"Voltage-dependent L-type calcium channel subunit beta-4, Q8R0S4",listed as a hit,yes
